Data published in patent US11666671B2, “Spatial mapping of kidney functions” (Northwestern University, priority 2018, dated 2023).

Test: Renal histology (immunofluorescence) and renal tubular handling of the carriers (FIGS. 3, 4)
Details: ^99mTc/HYNIC-labelled carriers

Substance: Duramycin
- renal tubular handling / fate of the carrier: excreted through urination
